Test results published in ChEMBL document CHEMBL4330158, “Prenylated Flavonoids from the Roots and Rhizomes of Sophora tonkinensis and Their Effects on the Expression of Inflammatory Mediators and Proprotein Convertase Subtilisin/Kexin Type 9” (J Nat Prod, 2019).
The source made the active and inactive calls. No cut-off for these calls is given here.

Tested on: 5'-AMP-activated protein kinase (Homo sapiens)
Assay: Induction of AMPK phosphorylation in human HepG2 cells at 4 to 20 uM by Western blot analysis

Structure (SMILES): CC(C)=CCc1c(O)ccc2c1OC[C@H]1c3ccc4c(c3O[C@@H]21)OC(C)(C)C=C4 [ERYBREADIN D]
- Activity: Active
